Literature values, collected in patent US5891887A, “Use of [R-(Z)]-α-(methoxyimino)-α-(1-azabicyclo [2.2.2.]oct-3-yl)acetonitrile to reduce amyloid βA4 formation in alzheimer's disease” (priority 1994, dated 1999).

Test system: m1 and/or m3 receptor subtypes
Conditions: by activation of m1 and/or m3 receptor subtypes; literature

C[N+](C)(C)CCOC(N)=O [carbachol]
Production of non-amyloidogenic APP fragments: enhance
